Particle size range data for one substance are collected here from patent publication US20120087985A1, “SMALL PEPTIDE SEQUENCES FOR STABILIZING BIOMOLECULES” (Biodel Inc., priority 2010, published 2012).

The data set is described as follows: Light microscopy of SPS in suspension. Particulars: mildly acidic range of pH about 5, light microscopy image.

For the substance “H-Aspartic Acid-Tryptophan-Aspartic Acid —OH”, the particle size range is on record as 300-900 μm.
